For six molecules, IC50 results are on record in BindingDB's records for 10.1016/0960-894X(95)00522-1.

Sequences of proteins named here, by UniProt entry; tags and fusion partners are left off.
UniProt P41143, whole entry: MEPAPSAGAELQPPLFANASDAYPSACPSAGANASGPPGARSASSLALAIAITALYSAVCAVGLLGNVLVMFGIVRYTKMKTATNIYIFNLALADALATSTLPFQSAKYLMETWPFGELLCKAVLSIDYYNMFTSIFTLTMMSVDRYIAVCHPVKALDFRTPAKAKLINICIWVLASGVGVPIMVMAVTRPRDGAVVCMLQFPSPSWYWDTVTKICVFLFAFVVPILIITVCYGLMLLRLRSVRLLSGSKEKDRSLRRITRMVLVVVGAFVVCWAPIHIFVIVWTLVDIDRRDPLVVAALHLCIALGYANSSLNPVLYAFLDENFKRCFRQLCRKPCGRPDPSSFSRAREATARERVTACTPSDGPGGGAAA

Each structure is given as a SMILES string.

For this test, the target named is Delta-type opioid receptor (Homo sapiens, UniProt P41143). Description: ASSAY_NAME: ChEBML_53437 DESCRIPTION: Compound was tested for its ability to displace [3H]Cl-DPDPE from delta opioid receptor in hartley guinea pig brain membrane in the presence of 100 nM of DPDPE.
The term IC50 denotes the concentration needed to halve the response being measured. For `COC12C=CC34C[C@@]1(C)C(c1ccccc1)=N[C@H]2C31CCN(C)C4Cc2ccc(O)cc21`, the IC50 was 0.69 nM. The figure for `COc1ccc2c(c1OC)[C@]13CC[N+](C)(C)[C@H](C2)[C@]12C=C[C@]1(OC)[C@H]3N=C(c3ccccc3)[C@]1(C)C2` is 34 nM. In the case of `COC12C=CC34C[C@@]1(C)[C@H](c1ccccc1)N[C@H]2C31CCN(C)C4Cc2ccc(O)cc21`, the IC50 turned out to be 0.32 nM. Turning to `COc1ccc2c(c1O)C13CCN(C)C(C2)C12C=CC1(OC)[C@H]3N=C(c3ccccc3)[C@]1(C)C2`, the IC50 worked out at 2.4 nM. The figure for `CCOc1ccc(C2=N[C@H]3C45CCN(C)C(Cc6ccc(OC)c(O)c64)[C@]54C=C[C@@]3(OC)[C@@]2(C)C4)cc1` is 12 nM. Take `CO[C@]12C=C[C@]34C[C@@]1(C)[C@H](c1ccccc1)N(C)[C@H]2C31CCN(C)C4Cc2ccc(O)cc21`: the IC50 was 0.71 nM.
